Experimental findings from ChEMBL document CHEMBL1130399, “Synthesis and pharmacological comparison of dimethylheptyl and pentyl analogs of anandamide” (J Med Chem, 1997) are described below.

Chains of the proteins cited; added tags and fusions are not shown. Lines headed by an entry give the natural chain unless they say otherwise; changes in a name come on top.
UniProt Q9QZN9: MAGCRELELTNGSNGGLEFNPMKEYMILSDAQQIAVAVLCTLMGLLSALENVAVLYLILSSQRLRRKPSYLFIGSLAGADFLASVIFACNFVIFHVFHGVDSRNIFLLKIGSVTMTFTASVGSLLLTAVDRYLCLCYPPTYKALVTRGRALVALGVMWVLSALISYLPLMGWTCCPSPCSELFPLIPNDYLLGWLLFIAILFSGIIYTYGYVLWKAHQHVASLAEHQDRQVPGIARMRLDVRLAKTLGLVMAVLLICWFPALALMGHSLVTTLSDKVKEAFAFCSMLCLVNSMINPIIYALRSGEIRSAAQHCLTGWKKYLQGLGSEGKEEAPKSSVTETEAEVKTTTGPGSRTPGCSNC
UniProt P20272: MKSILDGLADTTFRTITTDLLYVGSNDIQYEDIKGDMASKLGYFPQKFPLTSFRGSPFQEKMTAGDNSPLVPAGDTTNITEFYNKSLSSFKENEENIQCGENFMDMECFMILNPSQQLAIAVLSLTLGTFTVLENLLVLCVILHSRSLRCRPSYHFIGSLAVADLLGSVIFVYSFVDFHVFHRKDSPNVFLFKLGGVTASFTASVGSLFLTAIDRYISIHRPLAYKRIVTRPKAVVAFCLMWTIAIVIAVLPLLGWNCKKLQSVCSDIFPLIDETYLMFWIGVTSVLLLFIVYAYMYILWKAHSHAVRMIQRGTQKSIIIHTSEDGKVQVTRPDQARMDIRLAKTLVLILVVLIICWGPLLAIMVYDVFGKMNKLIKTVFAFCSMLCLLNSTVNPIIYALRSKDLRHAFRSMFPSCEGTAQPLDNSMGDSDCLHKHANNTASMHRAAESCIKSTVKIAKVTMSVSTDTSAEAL

In this experiment the target is Cannabinoid receptor (Rattus norvegicus, UniProt Q9QZN9+P20272). Put plainly: Binding affinity towards cannabinoid receptor using [3H]SR-141,716A as radioligand in rat brain membrane. The format is cell membranes.

Broadly, the Ki is the equilibrium dissociation constant of an inhibitor or competing ligand from its target. A high value points to weaker binding.

Take `CCCCC/C=C\C/C=C\C/C=C\C/C=C\CCCC(=O)NCCO` [ANANDAMIDE]: the Ki was determined as 0.282 µM. In other words, the sub-micromolar range.
